Consider two compounds from patent US6126917A, “Epidermal growth factor receptor binding compounds for positron emission tomography” (Hadasit Medical Research Services and Development Ltd., priority 1999, dated 2000).

Sequences of proteins named here, by UniProt entry; tags and fusion partners are left off. Residues count along the entry.
UniProt P00533, 25-1210: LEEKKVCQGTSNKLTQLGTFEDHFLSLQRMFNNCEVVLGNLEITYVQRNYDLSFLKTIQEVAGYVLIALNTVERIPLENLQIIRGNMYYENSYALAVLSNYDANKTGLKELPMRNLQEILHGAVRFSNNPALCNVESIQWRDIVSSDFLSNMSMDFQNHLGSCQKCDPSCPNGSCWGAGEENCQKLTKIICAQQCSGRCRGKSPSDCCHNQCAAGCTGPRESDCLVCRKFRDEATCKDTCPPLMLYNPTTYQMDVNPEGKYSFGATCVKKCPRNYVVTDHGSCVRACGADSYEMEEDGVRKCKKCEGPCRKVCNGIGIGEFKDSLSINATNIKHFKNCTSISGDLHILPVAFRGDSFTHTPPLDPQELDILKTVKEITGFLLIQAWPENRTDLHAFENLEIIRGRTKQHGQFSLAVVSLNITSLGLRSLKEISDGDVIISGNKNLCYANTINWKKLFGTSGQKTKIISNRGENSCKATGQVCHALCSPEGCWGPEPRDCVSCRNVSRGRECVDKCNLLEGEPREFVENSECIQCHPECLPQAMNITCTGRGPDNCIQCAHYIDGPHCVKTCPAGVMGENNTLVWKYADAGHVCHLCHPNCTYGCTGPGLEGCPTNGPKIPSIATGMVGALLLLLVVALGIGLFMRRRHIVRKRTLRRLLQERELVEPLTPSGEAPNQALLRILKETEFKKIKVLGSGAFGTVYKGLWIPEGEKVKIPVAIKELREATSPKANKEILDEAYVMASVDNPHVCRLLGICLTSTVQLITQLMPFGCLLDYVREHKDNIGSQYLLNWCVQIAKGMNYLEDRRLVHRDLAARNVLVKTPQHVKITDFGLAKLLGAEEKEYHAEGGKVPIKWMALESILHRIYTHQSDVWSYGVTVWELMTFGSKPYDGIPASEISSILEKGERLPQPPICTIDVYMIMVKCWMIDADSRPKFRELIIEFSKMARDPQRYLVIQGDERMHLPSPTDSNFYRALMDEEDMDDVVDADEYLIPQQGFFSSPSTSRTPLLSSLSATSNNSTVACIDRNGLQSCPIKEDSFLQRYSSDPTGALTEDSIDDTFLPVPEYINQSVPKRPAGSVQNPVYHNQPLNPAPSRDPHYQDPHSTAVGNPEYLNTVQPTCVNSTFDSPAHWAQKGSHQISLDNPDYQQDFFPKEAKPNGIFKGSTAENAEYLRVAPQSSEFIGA

What is called IC50 is the concentration needed to halve the response being measured.

Where two headings read alike, the source gives them in different places.

The target in the test is T1, EGFR-TK (Homo sapiens, UniProt P00533).
T1 construct: As a source of EGFR-TK, A431 human epidermoid carcinoma cell lysate was used; endogenous in cells; host or cells: A431 human epidermoid carcinoma cells (Triton X-100 lysate, EGFR captured by monoclonal antibody m108)
Description: EGFR-TK autophosphorylation inhibition (ELISA assay). Format: biochemical. On the procedure:
Autophosphorylation Inhibition Experiments:
EGFR-TK source: As a source of EGFR-TK, A431 human epidermoid carcinoma cell lysate was used. A431 cells were grown in DMEM containing 10% fetal calf serum and antibiotics penicillin and streptomycin). After several days, the cells were removed from the flasks by incubation at 37° C. with PBS/i mM EDTA buffer for 1 hour. […] Cell lysate was obtained with a further centrifugation (10,000 rpm×10 minutes at 4° C.), and the supernatant was collected and frozen at -70° C. in aliquots.
ELISA assay: EGFR-TK autophosphorylation IC50 values were obtained by means an ELISA assay. All the following incubations were performed at room temperature and with constant shaking. After each step the plate was washed with water (5×) and TBST buffer (1×). The final volume for each well was 150 μl. A Coming 96 well ELISA plate was coated with monoclonal anti EGFR antibody m108 (Sugen Inc.) diluted in PBS (pH 8.2), and kept overnight at 4° C.
After removing the unbound m108, the plate was washed and PBS containing 5% milk (1% fat) was added for the blocking (25 minutes). One aliquot of A431 cell lysate was thawed and added to the plate.
After 25 minutes, seven different concentrations of each inhibitor were added, and for each case one well was left as a control. All inhibitors were diluted in TBS/DMSO and the final concentration of DMSO was 0.05% in each well (including the controls).
After 25 minutes, and without washing the plate, ATP/MnCl2 solution was added in each well. The final concentration was 3 μM ATP/5 mM MnCl2. In this step the temperature was kept at 26° C. and the plate was under constant shaking. The incubation with ATP/MnCl2 was for 5 minutes.
Then, to stop the phosphorylation reaction, EDTA was added (pH 8, final concentration in each well 20 mM) and after 1 minute all the plate was washed.
Afterward, polyclonal anti-phosphotyrosine serum (Sugen, Inc.) was added (dilution of antibody in TBST containing 5% milk). The incubation was for 45 minutes.
For the calorimetric detection of phosphotyrosine in EGFR-TK, TAGO anti-rabbit peroxidase conjugate antibody (Sugen, Inc.) was added in TBST/5% milk solution (45 minutes).
After washing, the colorimetric reaction was performed by adding ABTS/H2 O2 in citrate-phosphate buffer.
The analysis of the data was performed with "Regression" software.
Since the exact concentrations of m108 in the stock solution and EGFR-TK in the cell lysate were unknown, an experiment was performed to determine the optimal dilution of m108 stock and lysate. Stock m108 (approx. 0.2-0.5 μg/μl) was diluted 1:400, 1:600, 1:800 and 1:1000 with PBS, while A431 cell lysate was diluted 1:2, 1:4, 1:6, 1:8, and 1:10.

For `COc1cc2ncnc(Nc3cccc(Cl)c3)c2cc1OC` [AG 1478, reference compound], the IC50 was determined as 0.79 ± 0.26 nM.

Turning to `COc1cc2ncnc(Nc3cccc(F)c3)c2cc1OC` [Compound 2, 4-[(3-Fluorophenyl)amino]-6,7-dimethoxyquinazoline], the IC50 is, setting by setting: (average ± SEM, A431 cell lysate, 3 μM ATP/5 mM MnCl2, Table 1, read-out: Autophosphorylation IC50) 19.8 ± 8.2 nM; (read-out: IC50 toward epidermal growth factor receptor tyrosine kinase activity (autophosphorylation)) 19.8 nM. Moreover, the “IC50 compared with the values for AG 1478 and PD 153035” value (relative to AG 1478 and PD 153035) is “higher by two orders of magnitude”.
